The text below walks through data of US6509367B1 (priority 2001, dated 2003).

Protein sequences, listed by entry. Tags and fused reporters are not part of them.
UniProt P20272, whole entry: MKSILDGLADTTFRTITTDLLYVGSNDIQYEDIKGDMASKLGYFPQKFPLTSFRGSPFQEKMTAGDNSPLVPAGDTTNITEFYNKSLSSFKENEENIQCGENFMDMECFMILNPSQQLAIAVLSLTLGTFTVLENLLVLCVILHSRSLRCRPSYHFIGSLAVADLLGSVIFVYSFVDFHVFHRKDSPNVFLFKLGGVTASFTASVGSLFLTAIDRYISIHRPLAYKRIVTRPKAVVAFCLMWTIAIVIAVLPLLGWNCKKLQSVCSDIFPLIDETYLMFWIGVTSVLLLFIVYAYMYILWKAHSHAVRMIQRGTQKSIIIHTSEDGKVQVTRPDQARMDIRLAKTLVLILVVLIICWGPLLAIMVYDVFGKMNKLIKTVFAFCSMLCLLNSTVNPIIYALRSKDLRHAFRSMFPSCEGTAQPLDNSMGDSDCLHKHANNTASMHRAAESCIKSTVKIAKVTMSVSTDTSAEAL

Experiment [1] deals with mice. Kind of experiment: Spontaneous activity in mice, compound in combination with 3 mg/kg Δ^9-THC (antagonism test). The experiment is classed as in vivo.
For experiment [2], the system named is mice. The experiment in a line: Tail-flick antinociception in mice, compound in combination with 3 mg/kg Δ^9-THC (antagonism test). The experiment is classed as in vivo.
The target in another experiment is CB1 receptor (Rattus norvegicus, UniProt P20272). The conditions noted are these: 1 nM [3H] CP 55,940, rat whole brain P2 membranes, 30° C. for 1 hr.
The subject of experiment [3] is mice. The experiment in a line: Spontaneous (locomotor) activity in mice, compound alone (agonism test). The experiment is classed as in vivo. The conditions noted are these: for Max stim of spontaneous locomotor activity, Compound Alone (in words): at the dose(s) [mg/kg] given in parentheses in the cell.
For experiment [4], the system named is mice. The experiment in a line: Rectal temperature (hypothermia) in mice, compound alone (agonism test). The settings on record: i.v.; for RT: maximal effect produced by the analog (change in rectal temperature): at 30 mg/kg. The class given is in vivo.
Experiment [5] relates to mice. Kind of experiment: Rectal temperature in mice, compound in combination with 3 mg/kg Δ^9-THC (antagonism test). The experiment is classed as in vivo.
Experiment [6] has as its system mice. The experiment in a line: Tail-flick antinociception in mice, compound alone (agonism test). The conditions noted are these: i.v. The class given is in vivo.
[7] abbreviates: at the dose(s) [mg/kg] given in parentheses in the cell.

Marks after values point to notes of the source that are not given here. Some results are limits rather than exact numbers.

As for `Cc1c(COCc2ccc(F)cc2F)nn(-c2ccc(Cl)cc2Cl)c1-c1ccc(Cl)cc1`, in the experiment with mice [1] (at 3 mg/kg i.v.), the “Max % inhibit of spontaneous locomotor activity, Compound with 3 mg/kg Δ^9-THC” value was 88% (3). In the experiment with mice [1] (setting [7]), the “Max stim of spontaneous locomotor activity, Compound with 3 mg/kg Δ^9-THC (in words)” value is recorded as “None (3 & 10)” and the “SA: maximum % antagonism of 3 mg/kg Δ^9-THC (in words)” value is listed as “None (3, 10)”. Further, the “% MPE: maximum % antagonism of 3 mg/kg Δ^9-THC” value with mice [2] (at 10 mg/kg i.v.) is on record as 51% (10). The Ki at CB1 receptor is 53 nM. Moreover, the “Max stim of spontaneous locomotor activity, Compound Alone” value in the experiment on mice [3] (at 3 mg/kg i.v.) is listed as 24% (3). The “Max % inhibit of spontaneous locomotor activity, Compound Alone” value (“Max % inhibit … Compound Alone” for short) in the experiment with mice [3] (at 30 mg/kg i.v.) was 49% (30). Also, the “SA: > dose, 50% activity not achieved at this highest dose tested” value (“SA: > dose, 50% activity not achieved” for short) in the experiment on mice [3] (mice, i.v.) is recorded as over 30 mg/kg. For the same molecule, the “RT: > dose, 50% activity not achieved at this highest dose tested” value (“RT: > dose, 50% activity not achieved” for short) in the experiment on mice [4] was over 30 mg/kg. Further, in the experiment with mice [5] (setting [7]), the “RT: maximum % antagonism of 3 mg/kg Δ^9-THC (in words)” value is “None (3, 10)”. Also, in the experiment with mice [6], the “TF: > dose, 50% activity not achieved at this highest dose tested” value (shortened to “TF: > dose, 50% activity not achieved”) was over 30 mg/kg.
In turn, `Cc1c(COCc2ccc(Cl)cc2)nn(-c2ccc(Cl)cc2Cl)c1-c1ccc(Cl)cc1` came in with a Ki at CB1 receptor of 109 nM. Also, the “Max % inhibit … Compound Alone” value in the experiment on mice [3] (at 30 mg/kg i.v.) is 46% (30). In the experiment on mice [3], the “Max stim of spontaneous locomotor activity, Compound Alone (in words)” value (from here on “Max stim … Compound Alone (in words)”) is “None (30)”. The “SA: maximal effect produced by the analog” value in the experiment on mice [3] (mice, i.v., at 30 mg/kg) was 66% (30)^#. In the experiment with mice [4], the “RT: maximal effect produced by the analog (change in rectal temperature)” value is listed as −3 (30)^# ° C. For the same molecule, in the experiment with mice [6], the “TF: > dose, 50% activity not achieved” value is given as over 30 mg/kg.
At CB1 receptor, `Cc1c(COCC2CCCCC2)nn(-c2ccc(Cl)cc2Cl)c1-c1ccc(Cl)cc1` returned a Ki of 388 nM.
Molecule `Cc1c(COCc2ccc(C)c3ccccc23)nn(-c2ccc(Cl)cc2Cl)c1-c1ccc(Cl)cc1` had an inhibition constant Ki at CB1 receptor of 143 nM. The “Max stim of spontaneous locomotor activity, Compound Alone” value in the experiment on mice [3] (at 30 mg/kg i.v.) is on record as 4% (30). Moreover, in the experiment on mice [3] (mice, i.v.), the “SA: > dose, 50% activity not achieved” value is recorded as over 30 mg/kg. For the same molecule, the “RT: > dose, 50% activity not achieved” value with mice [4] is listed as over 30 mg/kg. In addition, in the experiment with mice [6], the “TF: > dose, 50% activity not achieved” value was over 30 mg/kg.
Turning to `Cc1c(COCCN2CCCCC2)nn(-c2ccc(Cl)cc2Cl)c1-c1ccc(Cl)cc1`, on CB1 receptor, the Ki is 2450 nM. The “Max % inhibit … Compound Alone” value with mice [3] (at 10 mg/kg i.v.) is recorded as 69% (10). In addition, the “Max stim … Compound Alone (in words)” value with mice [3] is “None (10)”. The “SA: maximal effect produced by the analog” value in the experiment on mice [3] (mice, i.v., at 10 mg/kg) is reported as 69% (10)^a.
In the case of `Cc1c(COCc2ccc(F)cc2)nn(-c2ccc(Cl)cc2Cl)c1-c1ccc(Cl)cc1`, in the experiment on mice [1] (at 3 mg/kg i.v.), the “Max % inhibit of spontaneous locomotor activity, Compound with 3 mg/kg Δ^9-THC” value was 72% (3). The “SA: maximum % antagonism of 3 mg/kg Δ^9-THC” value in the experiment on mice [1] (at 3 mg/kg i.v., analog 10 min before Δ^9-THC) is given as 2% (3). Also, in the experiment with mice [1] (setting [7]), the “Max stim of spontaneous locomotor activity, Compound with 3 mg/kg Δ^9-THC (in words)” value is on record as “None (3)”. Also, the “% MPE: maximum % antagonism of 3 mg/kg Δ^9-THC” value with mice [2] (at 3 mg/kg i.v.) was 40% (3). At CB1 receptor, this molecule displayed a Ki of 54 nM. Further, the “Max stim of spontaneous locomotor activity, Compound Alone” value with mice [3] (at 1 mg/kg i.v.) is 31% (1). Further, the “Max % inhibit … Compound Alone” value in the experiment on mice [3] (at 30 mg/kg i.v.) was 96% (30). Moreover, the “stimulation of locomotor activity” value with mice [3] (compound alone, dose not given (see Table 5)) is “about 30%”. In addition, the “SA (suppression of spontaneous activity) ED50” value with mice [3] (mice, i.v., 95% confidence limits in parentheses, * = estimated ED50, dose-effect curve not linear) was 20 (17-25) μmol/kg. Besides, in the experiment with mice [4] (30 min post-injection, 95% confidence limits in parentheses), the “RT (rectal temperature) ED50” value is 40 (31-52) μmol/kg. Also, the “RT: maximum % antagonism of 3 mg/kg Δ^9-THC” value in the experiment with mice [5] (at 3 mg/kg i.v.) is 11% (3). Besides, the “TF: maximal effect produced by the analog” value in the experiment on mice [6] (at 30 mg/kg) is reported as 67% (30)^#.
The molecule `Cc1c(COCc2ccccc2)nn(-c2ccc(Cl)cc2Cl)c1-c1ccc(Cl)cc1` registered an inhibitory constant (Ki) on CB1 receptor of 108 nM. The “Max stim of spontaneous locomotor activity, Compound Alone” value in the experiment on mice [3] (at 10 mg/kg i.v.) is on record as 25% (10). For the same molecule, the “Max % inhibit … Compound Alone” value in the experiment with mice [3] (at 30 mg/kg i.v.) is reported as 48% (30). The “SA: > dose, 50% activity not achieved” value with mice [3] (mice, i.v.) is recorded as over 30 mg/kg. In the experiment on mice [4], the “RT: maximal effect produced by the analog (change in rectal temperature)” value was −4 (30)^# ° C. Besides, the “TF: > dose, 50% activity not achieved” value in the experiment with mice [6] was over 30 mg/kg.
With `CCCCCC(O)c1nn(-c2ccc(Cl)cc2Cl)c(-c2ccc(Cl)cc2)c1C` (stereo not drawn), the Ki on CB1 receptor was found to be 657 nM. The “Max % inhibit … Compound Alone” value in the experiment on mice [3] (at 30 mg/kg i.v.) is 11% (30). Also, the “Max stim … Compound Alone (in words)” value with mice [3] is reported as “None (30)”. The “SA: > dose, 50% activity not achieved” value in the experiment on mice [3] (mice, i.v.) was over 30 mg/kg. The “RT: > dose, 50% activity not achieved” value with mice [4] is over 30 mg/kg. The “TF: > dose, 50% activity not achieved” value with mice [6] is listed as over 30 mg/kg.
`COc1ccc(COCc2nn(-c3ccc(Cl)cc3Cl)c(-c3ccc(Cl)cc3)c2C)cc1` had a Ki on CB1 receptor of 194 nM. In addition, in the experiment on mice [3] (at 30 mg/kg i.v.), the “Max % inhibit … Compound Alone” value is recorded as 31% (30). Moreover, the “Max stim … Compound Alone (in words)” value in the experiment with mice [3] is listed as “None (30)”. Also, the “SA: > dose, 50% activity not achieved” value in the experiment with mice [3] (mice, i.v.) is recorded as over 30 mg/kg. Further, the “RT: > dose, 50% activity not achieved” value in the experiment with mice [4] is listed as over 30 mg/kg. In addition, the “TF: > dose, 50% activity not achieved” value in the experiment with mice [6] is over 30 mg/kg.
In turn, `Cc1c(COCC2CCCCO2)nn(-c2ccc(Cl)cc2Cl)c1-c1ccc(Cl)cc1` (stereo not drawn) returned a Ki at CB1 receptor of 351 nM. In addition, the “Max % inhibit … Compound Alone” value with mice [3] (at 10 mg/kg i.v.) is 43% (10). In addition, the “Max stim … Compound Alone (in words)” value in the experiment on mice [3] is listed as “None (10)”. Also, in the experiment on mice [3] (mice, i.v.), the “SA: > dose, 50% activity not achieved” value is reported as over 10 mg/kg.
The molecule `Cc1c(COCc2c3ccccc3cc3ccccc23)nn(-c2ccc(Cl)cc2Cl)c1-c1ccc(Cl)cc1` returned a Ki at CB1 receptor of 379 nM. Moreover, the “Max stim of spontaneous locomotor activity, Compound Alone” value in the experiment on mice [3] (at 30 mg/kg i.v.) was 4% (30). Also, the “SA: > dose, 50% activity not achieved” value in the experiment with mice [3] (mice, i.v.) was over 10 mg/kg. Moreover, the “RT: > dose, 50% activity not achieved” value with mice [4] is on record as over 10 mg/kg. Besides, the “TF: > dose, 50% activity not achieved” value with mice [6] is recorded as over 10 mg/kg.
`Cc1c(COCc2ccc3ccccc3c2)nn(-c2ccc(Cl)cc2Cl)c1-c1ccc(Cl)cc1`: the Ki on CB1 receptor came to 216 nM. Also, in the experiment on mice [3] (at 30 mg/kg i.v.), the “Max % inhibit … Compound Alone” value is on record as 3% (30). Moreover, the “Max stim … Compound Alone (in words)” value in the experiment with mice [3] is on record as “None (30)”. The “SA: > dose, 50% activity not achieved” value with mice [3] (mice, i.v.) is listed as over 30 mg/kg. Moreover, in the experiment with mice [4], the “RT: > dose, 50% activity not achieved” value was over 30 mg/kg. Also, the “TF: > dose, 50% activity not achieved” value in the experiment with mice [6] is listed as over 30 mg/kg.

Usually Ki stands for a measure of affinity in units of concentration, obtained from inhibition or displacement. Low readings indicate a stronger hold on the target, high ones a looser hold on the target.
